Source: ChEMBL document CHEMBL5500414 (J Med Chem, 2024)

Tests used:
[1] = target: T1, Bcl-2-related protein A1 (Homo sapiens) (UniProt Q16548); assay: Inhibition of BFL-1 in BFL-1 overexpressing isogenic human MOLM-13 cells assessed as enhancement of 1 uM venetoclax-induced early apoptotic cells at 20 uM measured after 24 hrs in presence of doxycycline by flow cytometry based Annexin V-PE/7-ADD Apoptosis detection kit; type: cell-based; design: scale not given: the % may be the effect or the level left
T1 sequence (whole entry): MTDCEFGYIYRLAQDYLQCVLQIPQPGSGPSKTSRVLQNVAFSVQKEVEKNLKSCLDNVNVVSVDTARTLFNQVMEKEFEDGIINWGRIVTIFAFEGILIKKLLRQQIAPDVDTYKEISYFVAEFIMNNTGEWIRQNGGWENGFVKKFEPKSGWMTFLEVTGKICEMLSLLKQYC

[2] = target: T1, Bcl-2-related protein A1 (Homo sapiens); assay: Binding affinity to BFL-1 in BFL-1 overexpressing isogenic human MOLM-13 cells assessed as covalent modification by measuring irreversible alkylation of cellular FLAG-tagged BFL-1 measured after 24 hrs incubation by SDS-PAGE based immunoprecipitation assay; type: cell-based
Pfeiffer [3] = assay: Inhibition of BCL-2/BIM interaction in human Pfeiffer cells assessed as decrease in BIM-associated BFL-1 level at 20 uM measured after 5 hrs by Co-IP assay; type: cell-based
MV4-11 = assay: Antiproliferative activity against BFL-1 overexpressing isogenic human MV4-11 cells assessed as inhibitory rate in presence of doxycycline; type: functional, cell-based
[4] = target: T1, Bcl-2-related protein A1 (Homo sapiens); assay: Inhibition of BFL-1 in BFL-1 overexpressing isogenic human MV4-11 cells assessed as early apoptotic cells at 10 uM measured after 48 hrs in presence of doxycycline by flow cytometry based Annexin V-PE/7-ADD Apoptosis detection kit; type: cell-based; design: scale not given: the % may be the effect or the level left
[5] = target: T1, Bcl-2-related protein A1 (Homo sapiens); assay: Inhibition of BFL-1 in BFL-1 overexpressing isogenic human MOLM-13 cells assessed as early apoptotic cells at 15 uM measured after 24 hrs in presence of doxycycline by flow cytometry based Annexin V-PE/7-ADD Apoptosis detection kit; type: cell-based; design: scale not given: the % may be the effect or the level left
Pfeiffer [6] = assay: Induction of apoptosis in human Pfeiffer cells assessed as increase in cytochrome c release in mitochondria measured after 5 hrs by Western blot analysis; type: functional, cell-based; settings: dose 10-20 µM
[7] = target: T1, Bcl-2-related protein A1 (Homo sapiens); assay: Inhibition of BFL-1 in BFL-1 overexpressing isogenic human MOLM-13 cells assessed as late apoptotic cells at 20 uM measured after 24 hrs in presence of doxycycline by flow cytometry based Annexin V-PE/7-ADD Apoptosis detection kit; type: cell-based; design: scale not given: the % may be the effect or the level left
[8] = target: T1, Bcl-2-related protein A1 (Homo sapiens); assay: Inhibition of BFL-1 in BFL-1 overexpressing isogenic human MOLM-13 cells assessed as enhancement of venetoclax-induced increase in cleaved PARP level at 15 uM in presence of doxycycline by Western blot analysis; type: cell-based
[9] = target: T1, Bcl-2-related protein A1 (Homo sapiens); assay: Inhibition of BFL-1 in BFL-1 overexpressing isogenic human MOLM-13 cells assessed as enhancement of 3 uM venetoclax-induced late apoptotic cells at 15 uM measured after 24 hrs in presence of doxycycline by flow cytometry based Annexin V-PE/7-ADD Apoptosis detection kit; type: cell-based; design: scale not given: the % may be the effect or the level left
[10] = target: T1, Bcl-2-related protein A1 (Homo sapiens); assay: Inhibition of BFL-1 in BFL-1 overexpressing isogenic human MV4-11 cells assessed as enhancement of 1 uM venetoclax-induced late apoptotic cells at 15 uM measured after 48 hrs in presence of doxycycline by flow cytometry based Annexin V-PE/7-ADD Apoptosis detection kit; type: cell-based; design: scale not given: the % may be the effect or the level left
[11] = target: T1, Bcl-2-related protein A1 (Homo sapiens); assay: Inhibition of BFL-1 in BFL-1 overexpressing isogenic human MV4-11 cells assessed as early apoptotic cells at 20 uM measured after 48 hrs in presence of doxycycline by flow cytometry based Annexin V-PE/7-ADD Apoptosis detection kit; type: cell-based; design: scale not given: the % may be the effect or the level left
[12] = target: T1, Bcl-2-related protein A1 (Homo sapiens); assay: Inhibition of BFL-1 in BFL-1 overexpressing isogenic human MV4-11 cells assessed as late apoptotic cells at 20 uM measured after 48 hrs in presence of doxycycline by flow cytometry based Annexin V-PE/7-ADD Apoptosis detection kit; type: cell-based; design: scale not given: the % may be the effect or the level left
[13] = target: T1, Bcl-2-related protein A1 (Homo sapiens); assay: Inhibition of BFL-1 in BFL-1 overexpressing isogenic human MV4-11 cells assessed as enhancement of 1 uM venetoclax-induced early apoptotic cells at 20 uM measured after 48 hrs in presence of doxycycline by flow cytometry based Annexin V-PE/7-ADD Apoptosis detection kit; type: cell-based; design: scale not given: the % may be the effect or the level left
[14] = target: T1, Bcl-2-related protein A1 (Homo sapiens); assay: Inhibition of BFL-1 in BFL-1 overexpressing isogenic human MOLM-13 cells assessed as enhancement of 3 uM venetoclax-induced early apoptotic cells at 10 uM measured after 24 hrs in presence of doxycycline by flow cytometry based Annexin V-PE/7-ADD Apoptosis detection kit; type: cell-based; design: scale not given: the % may be the effect or the level left
[15] = target: T1, Bcl-2-related protein A1 (Homo sapiens); assay: Inhibition of BFL-1 in BFL-1 overexpressing isogenic human MOLM-13 cells assessed as enhancement of 1 uM venetoclax-induced late apoptotic cells at 20 uM measured after 24 hrs in presence of doxycycline by flow cytometry based Annexin V-PE/7-ADD Apoptosis detection kit; type: cell-based; design: scale not given: the % may be the effect or the level left
[16] = target: T1, Bcl-2-related protein A1 (Homo sapiens); assay: Inhibition of BFL-1 in BFL-1 overexpressing isogenic human MOLM-13 cells assessed as enhancement of 1 uM venetoclax-induced late apoptotic cells at 15 uM measured after 24 hrs in presence of doxycycline by flow cytometry based Annexin V-PE/7-ADD Apoptosis detection kit; type: cell-based; design: scale not given: the % may be the effect or the level left
[17] = target: T1, Bcl-2-related protein A1 (Homo sapiens); assay: Inhibition of BFL-1 in BFL-1 overexpressing isogenic human MOLM-13 cells assessed as enhancement of 3 uM venetoclax-induced early apoptotic cells at 15 uM measured after 24 hrs in presence of doxycycline by flow cytometry based Annexin V-PE/7-ADD Apoptosis detection kit; type: cell-based; design: scale not given: the % may be the effect or the level left
[18] = target: T1, Bcl-2-related protein A1 (Homo sapiens); assay: Inhibition of BFL-1 in BFL-1 overexpressing isogenic human MV4-11 cells assessed as late apoptotic cells at 15 uM measured after 48 hrs in presence of doxycycline by flow cytometry based Annexin V-PE/7-ADD Apoptosis detection kit; type: cell-based; design: scale not given: the % may be the effect or the level left
[19] = target: T1, Bcl-2-related protein A1 (Homo sapiens); assay: Inhibition of BFL-1 in BFL-1 overexpressing isogenic human MV4-11 cells assessed as enhancement of 3 uM venetoclax-induced late apoptotic cells at 15 uM measured after 48 hrs in presence of doxycycline by flow cytometry based Annexin V-PE/7-ADD Apoptosis detection kit; type: cell-based; design: scale not given: the % may be the effect or the level left
[20] = target: T1, Bcl-2-related protein A1 (Homo sapiens); assay: Inhibition of BFL-1 in BFL-1 overexpressing isogenic human MV4-11 cells assessed as enhancement of 3 uM venetoclax-induced early apoptotic cells at 15 uM measured after 48 hrs in presence of doxycycline by flow cytometry based Annexin V-PE/7-ADD Apoptosis detection kit; type: cell-based; design: scale not given: the % may be the effect or the level left
[21] = target: T1, Bcl-2-related protein A1 (Homo sapiens); assay: Inhibition of BFL-1 in BFL-1 overexpressing isogenic human MV4-11 cells assessed as enhancement of 1 uM venetoclax-induced early apoptotic cells at 10 uM measured after 48 hrs in presence of doxycycline by flow cytometry based Annexin V-PE/7-ADD Apoptosis detection kit; type: cell-based; design: scale not given: the % may be the effect or the level left
[22] = target: T1, Bcl-2-related protein A1 (Homo sapiens); assay: Inhibition of BFL-1 in BFL-1 overexpressing isogenic human MOLM-13 cells assessed as enhancement of venetoclax-induced increase in cytochrome c release in mitochondria at 15 uM in presence of doxycycline by Western blot analysis
[23] = target: T1, Bcl-2-related protein A1 (Homo sapiens); assay: Inhibition of BFL-1 in BFL-1 overexpressing isogenic human MV4-11 cells assessed as enhancement of 3 uM venetoclax-induced late apoptotic cells at 20 uM measured after 48 hrs in presence of doxycycline by flow cytometry based Annexin V-PE/7-ADD Apoptosis detection kit; type: cell-based; design: scale not given: the % may be the effect or the level left
[24] = target: T1, Bcl-2-related protein A1 (Homo sapiens); assay: Inhibition of BFL-1 in BFL-1 overexpressing isogenic human MOLM-13 cells assessed as late apoptotic cells at 10 uM measured after 24 hrs in presence of doxycycline by flow cytometry based Annexin V-PE/7-ADD Apoptosis detection kit; type: cell-based; design: scale not given: the % may be the effect or the level left

C=CC(=O)Nc1ccc2c(c1)CCC(CN1CCN(c3ccc(C(=O)O)c(Oc4cnc5[nH]ccc5c4)c3)CC1)=C2c1ccc(Cl)cc1CC
Activity [1]: 78.9%
Activity [2]: 50%
Activity (Pfeiffer [3]): inactive
Activity (MV4-11): Dose-Dependent Effect
Activity [4]: 5.52%
Activity [5]: 18.5%
Activity (Pfeiffer [6]): Dose-Dependent Effect
Activity [7]: 5.63%
Activity [8]: Active
Activity [9]: 10.7%
Activity [10]: 54.1%
Activity [11]: 4.55%
Activity [12]: 20.4%
Activity [13]: 16%
Activity [14]: 64.6%
Activity [15]: 13.5%
Activity [16]: 9.59%
Activity [17]: 77.6%
Activity [18]: 6.38%
Activity [19]: 54%
Activity [20]: 10.5%
Activity [21]: 6.03%
Activity [22]: Active
Activity [23]: 83.7%
Activity [24]: 1.9%

Active and inactive are the calls of the source. The calls are words filed in the database; no cut-off is given here.
